The list shows a part of the results, in another mix than the full data. Activity calls are given as the source filed them.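 The calls were made as follows: active = inhibition of at least 40% at 10 µM in the primary screen; inactive = the rest.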
Each molecule was assayed on intestinal alkaline phosphatase [Mus musculus] (assay: mouse intestinal phosphatase enzyme inhibition – biochemical, luminescence, uHTS, primary screen (AID 2806;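 also: plate controls were DMSO with enzyme for no effect and no enzyme wells for full effect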)). Conditions: purified mouse IAP, CDP-Star luminescence, 30 min; at 10 µM; hits give high values.
Cc1cc(SC(NC(=O)c2ccccc2)C(Cl)(Cl)Cl)nc(C(C)C)n1 (stereo not drawn) was tested, and the inhibition was inactive: 11.4%.
For CCCCOc1ccc(C(=O)NCC2(N3CCCCC3)CCCCC2)cc1OC, the inhibition was inactive: -24.8%.
With CCOC(=O)Nc1ccc([As](=O)(O)O)c(O)c1 the inhibition was inactive: 19.7%.
O=P(Nc1ccccn1)(c1cccc2ccccc12)c1cccc2ccccc12 was tested, and the inhibition was inactive: 2.2%.
For Cc1cc(SC(NC=O)C(Cl)(Cl)Cl)ncn1 (stereo not drawn), the inhibition was inactive: -6.7%.
CCOC(=O)Nc1cccc([As](=O)(O)O)c1 was tested, and the inhibition was inactive: 10.2%.
For O=C(Nc1ccncc1[N+](=O)[O-])c1ccc([N+](=O)[O-])cc1[N+](=O)[O-], the inhibition was inactive: 5.3%.
O=C(COc1ccccc1)OC1CN2CCC1CC2 (stereo not drawn) was tested, and the inhibition was inactive: -0.8%.
COP1(=S)c2c(C)nn(CCC#N)c2N=C(c2ccc(F)cc2)N1C (stereo not drawn) was tested, and the inhibition was inactive: 5.2%.
With CCC(C)N(CC(C)C)C(=S)SC(NC(C)=O)C(Cl)(Cl)Cl (stereo not drawn) the inhibition was inactive: 5.1%.
CCOC(=O)c1ccc(NC(=O)C(C)(CCl)SC)cc1 (stereo not drawn) was tested, and the inhibition was inactive: -10%.
For O=C(OC1CN2CCC1CC2)c1cccc([N+](=O)[O-])c1 (stereo not drawn), the inhibition was inactive: -2.6%.
COc1cc(I)ccc1[As](=O)(O)O was tested, and the inhibition was inactive: 4%.
COc1ccc2nc(NP(=O)(c3ccccc3)c3ccccc3)sc2c1 was tested, and the inhibition was inactive: 7.5%.
With Cc1cc(=O)[nH]c(N[N+](=O)[O-])n1 the inhibition was inactive: -7.6%.
In the case of O=C(OC1CN2CCC1CC2)C12CC3CC(CC(C3)C1)C2 (stereo not drawn), the inhibition is reported as inactive: 4.2%.
Cc1c2c(nc3ccccc13)SC(C(Cl)Cl)C2 (stereo not drawn) was tested, and the inhibition was inactive: 4%.
In the case of COc1ccc(N/C(=N/P(=O)(N2CCOCC2)N2CCOCC2)N2CCOCC2)cc1, the inhibition is reported as inactive: 8.9%.
With Cc1ccc2nc3c(c(C)c2c1)CC(C(Cl)Cl)S3 (stereo not drawn) the inhibition was inactive: 5.2%.
For Cc1ccc(OP(=O)(Nc2ccc([N+](=O)[O-])cn2)Oc2ccc(C)cc2)cc1, the inhibition was inactive: -5.4%.
COc1cc(C(=O)NCC2(N3CCOCC3)CCCCC2)ccc1OCC(C)C was tested, and the inhibition was inactive: -5.5%.
In the case of C[As](=O)(O)c1cccc(C(=O)O)c1, the inhibition is reported as inactive: 2.2%.
O=[As](O)(c1ccc(O)cc1)c1ccccc1O was tested, and the inhibition was inactive: -1.9%.
O=[N+]([O-])c1cc([N+](=O)[O-])c(-c2ccn[nH]2)s1 was tested, and the inhibition was active: 43.4%.
In the case of CC(C)NC(=O)NP(=O)(Oc1ccccc1)Oc1ccccc1, the inhibition is reported as inactive: -0.4%.
For O=C(OC1CN2CCC1CC2)c1cccc2[nH]cnc12 (stereo not drawn), the inhibition was inactive: -0.1%.
For CCN(CC)C(=S)SC(NC=O)C(Cl)(Cl)Cl (stereo not drawn), the inhibition was inactive: -6.3%.
With CC(C)c1ccc(OP(=O)(Nc2ccccn2)Oc2ccccc2F)cc1 (stereo not drawn) the inhibition was inactive: 1.5%.
ClCCSc1nnc(-c2cccnc2)o1 was tested, and the inhibition was inactive: 0.9%.
With Nc1ccccc1[As](=O)(O)c1ccccc1 the inhibition was inactive: -4.2%.
With O=C(O)COc1ccc([As](=O)(O)O)cc1[N+](=O)[O-] the inhibition was inactive: -5.6%.
In the case of CS(=O)(=O)c1cc([N+](=O)[O-])c2no[n+]([O-])c2c1, the inhibition is reported as inactive: 7%.
For O=P(Nc1nccs1)(Oc1ccccc1)Oc1ccccc1, the inhibition was inactive: -2.4%.
In the case of O=P(Nc1nccs1)(c1ccccc1)c1nc2ccccc2s1 (stereo not drawn), the inhibition is reported as inactive: -5.2%.
In the case of CCOP1(=S)c2c(C)nn(CCC#N)c2N=C(c2ccccc2F)N1C (stereo not drawn), the inhibition is reported as inactive: 0.2%.
For CN(C(=O)Cc1ccc(Cl)c(Cl)c1)[C@H]1CC[C@@]2(CCCO2)C[C@@H]1N1CCCC1, the inhibition was inactive: -2.9%.
O=[N+]([O-])c1ccc2c(c1)nnn2O was tested, and the inhibition was inactive: -4.4%.
CN(C)C(=O)c1cc([N+](=O)[O-])cc2c1-c1c(cc([N+](=O)[O-])cc1[N+](=O)[O-])C2=O was tested, and the inhibition was inactive: -5.1%.
For CN(C(=O)Cc1ccccc1)[C@@H]1CC[C@]2(CCCO2)C[C@H]1N1CCCC1, the inhibition was inactive: 4%.
In the case of CCOP1(=S)c2c(C)nn(CCC#N)c2N=C(c2ccc(F)cc2)N1C (stereo not drawn), the inhibition is reported as inactive: 11.4%.
For N#CCCN(C(=O)COC(=O)C(O)(c1ccccc1)c1ccccc1)c1ccc(F)cc1, the inhibition was inactive: 7.1%.
For NC(=O)Nc1ccc([As](=O)(O)O)cc1, the inhibition was inactive: -13.8%.
For Cc1cccc(OCC(=O)OC2CN3CCC2CC3)c1 (stereo not drawn), the inhibition was inactive: 1.7%.
In the case of O=[As](O)(c1cccc(O)c1)c1cccc(O)c1, the inhibition is reported as inactive: 5.8%.
With CS(=O)(=O)c1ccc(Cl)c(NC(=O)COC(=O)C(O)(c2ccccc2)c2ccccc2)c1 the inhibition was inactive: 1.4%.
With O=[As](O)(O)c1cccnc1 the inhibition was inactive: 3.3%.
With COc1cc(C(=O)NCC2(N3CCOCC3)CCCCC2)cc(Cl)c1OC(C)C the inhibition was inactive: -7.5%.
O=C(OC1CN2CCC1CC2)c1ccc(Cl)cc1 (stereo not drawn) was tested, and the inhibition was inactive: -4.9%.
In the case of CCOP(=O)(Nc1cccc2ccccc12)OCC, the inhibition is reported as inactive: 3.8%.
With COc1cc(C2NCCC3(OCCO3)C2(C)C)cc(OC)c1OC (stereo not drawn) the inhibition was inactive: 1.6%.
CCCOP(=S)(Nc1nc(N)cc(=O)[nH]1)OCCC was tested, and the inhibition was inactive: -0.3%.
For Cc1ccc(NCCc2c([N+](=O)[O-])cc([N+](=O)[O-])cc2[N+](=O)[O-])cc1, the inhibition was inactive: 15.3%.
In the case of CC(C)(C)C(=O)NC(Sc1ncccn1)C(Cl)(Cl)Cl (stereo not drawn), the inhibition is reported as inactive: -0.4%.
Clc1n[nH]nc1-c1nn[nH][15n]1 was tested, and the inhibition was inactive: 0.5%.
For CCOP(=O)(Nc1ccc(C)cn1)OCC, the inhibition was inactive: -13.2%.
CN(CCCl)Cc1cc(Cl)c(NC2=NCCN2)c(Cl)c1 was tested, and the inhibition was inactive: 2.3%.
CCOP(=O)(NC(=NC(C)c1ccccc1)NC(C)c1ccccc1)OCC (stereo not drawn) was tested, and the inhibition was inactive: -3.7%.
In the case of O=P1(Nc2ccccn2)COc2ccccc2OC1, the inhibition is reported as inactive: -4.1%.
For CCC1=CC2Cc3nc4ccc(Cl)cc4c(N)c3C(C1)C2 (stereo not drawn), the inhibition was inactive: -5.4%.
CC1(CBr)Cn2c(nc3ccccc3c2=O)S1 (stereo not drawn) was tested, and the inhibition was inactive: -6.4%.
With O=[As](O)(c1ccccc1Br)c1ccccc1Br the inhibition was inactive: -3.3%.
CC(C)/C=N\N=C(\N)N[N+](=O)[O-] was tested, and the inhibition was inactive: -9.5%.
For CN(C(=O)Cc1ccc(Cl)c(Cl)c1)[C@@H]1CCCC[C@H]1N1CCCC1, the inhibition was inactive: -1.5%.
In the case of COc1ccccc1CNC(=O)COC(=O)C(O)(c1ccccc1)c1ccccc1, the inhibition is reported as inactive: 3.5%.
O=C(/C=C/c1ccccc1)OC1CN2CCC1CC2 (stereo not drawn) was tested, and the inhibition was inactive: -7.2%.
In the case of CN(C)C1(CNC(=O)c2ccc(S(C)(=O)=O)cc2)CCCCC1, the inhibition is reported as inactive: -5.3%.
In the case of CC1CCC(C(C)C)C(OP(=O)(Nc2ccccn2)c2ccccc2)C1 (stereo not drawn), the inhibition is reported as inactive: 10.2%.
In the case of Cc1ccc(C(=O)OC2CN3CCC2CC3)cc1 (stereo not drawn), the inhibition is reported as inactive: 2.5%.
Cc1nn(-c2ccccc2)c2c1P(=O)(N1CCOCC1)N(C)C(c1ccccc1)=N2 (stereo not drawn) was tested, and the inhibition was inactive: 3.5%.
In the case of O=[As](O)(c1cccs1)c1cccs1, the inhibition is reported as inactive: 5.3%.
With Cc1ccc(OCC(=O)OC2CN3CCC2CC3)cc1 (stereo not drawn) the inhibition was inactive: 7.1%.
With O=P1(Nc2ccc(Br)cn2)COc2ccccc2OC1 the inhibition was inactive: 4.2%.
With NS(=O)(=O)c1cccc(NC(=O)COC(=O)C(O)(c2ccccc2)c2ccccc2)c1 the inhibition was inactive: 19.9%.
Nc1cccc([As](=O)(O)c2ccccc2)c1 was tested, and the inhibition was inactive: -3.4%.
O=P1(Nc2ncccn2)COc2ccccc2OC1 was tested, and the inhibition was inactive: 3.7%.
With C[C@H]1OP(=O)(Oc2ccccc2)[C@H](O)[C@H](O)[C@H]1N=[N+]=[N-] (stereo partly drawn) the inhibition was inactive: -11.6%.
With O=P(Nc1nc2ccccc2s1)(c1ccccc1)c1ccccc1 the inhibition was inactive: 1.8%.
In the case of O=P(Nc1ccccn1)(c1ccc(Br)cc1)c1ccc(Br)cc1, the inhibition is reported as inactive: -5.7%.
For CN(C)C1(CNC(=O)c2ccc(Cl)c(S(N)(=O)=O)c2)CCCCC1, the inhibition was inactive: -5.5%.
With C(Cc1nn[nH]n1)Cc1nn[nH]n1 the inhibition was inactive: 11.2%.
For Nc1ccc([As](=O)(O)c2ccc([N+](=O)[O-])cc2)cc1, the inhibition was inactive: 8.8%.
In the case of O=C(OC1CN2CCC1CC2)c1cccc(Cl)c1 (stereo not drawn), the inhibition is reported as inactive: -4.4%.
With O=[N+]([O-])c1ncn(CCn2cnc([N+](=O)[O-])n2)n1 the inhibition was inactive: 0.3%.
In the case of O=[As](O)(c1ccccc1)c1ccc(O)cc1, the inhibition is reported as inactive: -8.7%.
With c1nnnn1CCn1cnnn1 the inhibition was inactive: -8.2%.
In the case of CC(C)C(=O)NC(Sc1ccccc1)C(Cl)(Cl)Cl (stereo not drawn), the inhibition is reported as inactive: -6.6%.
O=P(Nc1nccs1)(c1ccccc1)c1ccccc1 was tested, and the inhibition was inactive: 4.8%.
CC(C)(C)C(=O)NC(Sc1ccccc1)C(Cl)(Cl)Cl (stereo not drawn) was tested, and the inhibition was inactive: 3.9%.
For CCOc1ccc(C2=NCC(CBr)S2)cc1 (stereo not drawn), the inhibition was inactive: 10.9%.
With O=P1(Nc2nc3ccc(Cl)cc3s2)COc2ccccc2O1 (stereo not drawn) the inhibition was inactive: -1.4%.
With CC(=O)Nc1ccc(Oc2c([N+](=O)[O-])cc([N+](=O)[O-])cc2[N+](=O)[O-])cc1 the inhibition was inactive: -10.4%.
CC(=O)Nc1ccc([As](=O)(O)O)c(O)c1 was tested, and the inhibition was inactive: 8.8%.
With CC(=O)c1ccc(N2CC2c2ccncc2)cc1 (stereo not drawn) the inhibition was inactive: 4.2%.
With C[C@H]1OP(=O)(Oc2ccccc2)C[C@@H]2O[C@@H]21 (stereo partly drawn) the inhibition was inactive: -3.6%.
For C[C@@H]1C=CCP(=O)(Oc2ccccc2)O1 (stereo partly drawn), the inhibition was inactive: 5.7%.
Cc1ccccc1CN(C)C(=O)COC(=O)C(O)(c1ccccc1)c1ccccc1 was tested, and the inhibition was inactive: 6.1%.
In the case of CCNC(=S)/N=C(\N)N[N+](=O)[O-], the inhibition is reported as inactive: 10.3%.
With O=C(NC1CCS(=O)(=O)C1)NP(=S)(Oc1ccccc1)Oc1ccccc1 (stereo not drawn) the inhibition was inactive: -3.4%.
With CCOC(=O)NC(Sc1ccccc1)C(Cl)(Cl)Cl (stereo not drawn) the inhibition was inactive: 7.9%.
With Cc1ccc(NP(=O)(Oc2cccc(C)c2)Oc2cccc(C)c2)nc1 the inhibition was inactive: -13.4%.
In the case of c1ccc(-c2nn[nH]n2)c(-c2nn[nH]n2)c1, the inhibition is reported as inactive: 5.3%.
In the case of CN(C)C(=O)Oc1noc2ccccc12, the inhibition is reported as inactive: 1.8%.
CC(NC(=O)COC(=O)C(O)(c1ccccc1)c1ccccc1)c1ccccc1 (stereo not drawn) was tested, and the inhibition was inactive: -8%.

— PubChem BioAssay AID2806 (Sanford-Burnham Center for Chemical Genomics, 2010)
